Values quoted from earlier work as cited in article PMC5897741, “Thermokinetic profile of NDM-1 and its inhibition by small carboxylic acids” (Bioscience Reports, 2018).

Legend:
Settings in all cases: 100 μM compound; cited from earlier work
[1] = test system: IMP-1
[2] = test system: BcII
[3] = test system: VIM-2
[4] = test system: VIM-4

## O=C(O)c1cccc(C(=O)O)n1 [Compound 7, pyridine-2,6-dicarboxylic acid]
[1]
  enzyme activity towards imipenem: 2%
[2]
  effect on enzyme activity: barely any effect
[3]
  effect on enzyme activity: barely any effect
[4]
  effect on enzyme activity: barely any effect
